Test results as given in patent US20070105759A1 (priority 2003, published 2007).

Protein sequences, listed by entry. Tags and fused reporters are not part of them.
UniProt P32245, whole entry: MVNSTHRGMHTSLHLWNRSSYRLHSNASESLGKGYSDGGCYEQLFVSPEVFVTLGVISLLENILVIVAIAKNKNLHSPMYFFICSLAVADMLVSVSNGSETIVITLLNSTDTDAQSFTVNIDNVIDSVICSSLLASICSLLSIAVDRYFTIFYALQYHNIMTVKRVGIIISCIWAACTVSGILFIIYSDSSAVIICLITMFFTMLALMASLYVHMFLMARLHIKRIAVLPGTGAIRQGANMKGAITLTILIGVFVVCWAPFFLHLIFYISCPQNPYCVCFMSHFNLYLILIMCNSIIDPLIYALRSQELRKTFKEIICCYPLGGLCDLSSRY

target: MC4 (Homo sapiens, UniProt P32245); details: read-out: MC4 Ki

SMILES | Ki
CC(=O)N[C@H](C(=O)N[C@H]1CSSC[C@@H](C(N)=O)NC(=O)[C@H](Cc2c[nH]c3ccccc23)NC(=O)[C@H](CCCNC(=N)N)NC(=O)[C@@H](Cc2ccccc2)NC(=O)[C@H](Cc2c[nH]cn2)NC(=O)[C@H](CCC(=O)O)NC1=O)C(C)C [Compound No. 63, Ac-Val-cyclo[Cys-Glu-His-D-Phe-Arg-Trp-Cys]-NH2] | 2.28 nM
N=C(N)NCCC[C@@H]1NC(=O)[C@@H](Cc2ccccc2)NC(=O)[C@H](Cc2c[nH]cn2)NC(=O)[C@@H](NC(=O)[C@@H](N)CCCNC(=N)N)CCSSC[C@@H](C(=O)O)NC(=O)[C@H](Cc2c[nH]c3ccccc23)NC1=O [Compound No. 155, Arg-cyclo[hCys-His-D-Phe-Arg-Trp-Cys]-OH] | 0.68 nM
N=C(N)NCCC[C@H](NC(=O)[C@@H](N)Cc1ccc(O)cc1)C(=O)N[C@H]1CCSSC[C@@H](C(N)=O)NC(=O)[C@H](Cc2c[nH]c3ccccc23)NC(=O)[C@H](CCCNC(=N)N)NC(=O)[C@@H](Cc2ccccc2)NC(=O)[C@H](Cc2c[nH]cn2)NC1=O [Compound No. 162, Tyr-Arg-cyclo[hCys-His-D-Phe-Arg-Trp-Cys]-NH2] | 0.08 nM
CC1(C)SSCC[C@H](NC(=O)C2CCCC2)C(=O)N[C@@H](Cc2c[nH]cn2)C(=O)N[C@H](Cc2ccccc2)C(=O)N[C@@H](CCCNC(=N)N)C(=O)N[C@@H](Cc2c[nH]c3ccccc23)C(=O)N[C@@H]1C(N)=O [Compound No. 171, N-cyclopentanecarbonyl-cyclo[hCys-His-D-Phe-Arg-Trp-penicillamine]-NH2] | 0.1 nM
CC(=O)N[C@@H](CCCNC(N)=O)C(=O)N[C@H]1CSSC[C@@H](C(N)=O)NC(=O)[C@H](Cc2c[nH]c3ccccc23)NC(=O)[C@H](CCCNC(=N)N)NC(=O)[C@@H](Cc2ccccc2)NC(=O)[C@H](Cc2c[nH]cn2)NC(=O)[C@H](CCC(=O)O)NC1=O [Compound No. 55, Ac-Cit-cyclo[Cys-Glu-His-D-Phe-Arg-Trp-Cys]-NH2] | 1.67 nM
CC(=O)N[C@H](CCCNC(=N)N)C(=O)N[C@H]1CSSC[C@@H](C(N)=O)NC(=O)[C@H](Cc2c[nH]c3ccccc23)NC(=O)[C@H](CCCNC(=N)N)NC(=O)[C@@H](Cc2ccccc2)NC(=O)[C@H](Cc2c[nH]cn2)NC(=O)[C@H](CS(=O)(=O)O)NC1=O [Compound No. 27, Ac-D-Arg-cyclo[Cys-Cya-His-D-Phe-Arg-Trp-Cys]-NH2] | 1.05 nM
N=C(N)NCCC[C@H](NC(=O)[C@@H](N)Cc1ccc(O)cc1)C(=O)N[C@H]1CSSC[C@@H](C(N)=O)NC(=O)[C@H](Cc2c[nH]c3ccccc23)NC(=O)[C@H](CCCNC(=N)N)NC(=O)[C@@H](Cc2ccccc2)NC(=O)[C@H](Cc2c[nH]cn2)NC(=O)[C@H](CCC(=O)O)NC1=O [Compound No. 68, Tyr-Arg-cyclo[Cys-Glu-His-D-Phe-Arg-Trp-Cys]-NH2] | 0.63 nM
CC(=O)N[C@@H](Cc1ccc(O)cc1)C(=O)N[C@@H](CCCNC(=N)N)C(=O)N[C@H]1CSSC[C@@H](C(=O)NC(CO)CO)NC(=O)[C@H](Cc2c[nH]c3ccccc23)NC(=O)[C@H](CCCNC(=N)N)NC(=O)[C@@H](Cc2ccccc2)NC(=O)[C@H](Cc2c[nH]cn2)NC(=O)[C@H](CCC(=O)O)NC1=O [Compound No. 116, Ac-Tyr-Arg-cyclo[Cys-Glu-His-D-Phe-Arg-Trp-Cys]-Ser alcohol] | 2 nM
CC(=O)N[C@@H](Cc1ccc(O)cc1)C(=O)N[C@@H](CCCNC(=N)N)C(=O)N[C@H]1CCSSCC[C@@H](C(N)=O)NC(=O)[C@H](Cc2c[nH]c3ccccc23)NC(=O)[C@H](CCCNC(=N)N)NC(=O)[C@@H](Cc2ccccc2)NC(=O)[C@H](Cc2c[nH]cn2)NC(=O)[C@H](CCC(=O)O)NC1=O [Compound No. 197, Ac-Tyr-Arg-cyclo[hCys-Glu-His-D-Phe-Arg-Trp-hCys]-NH2] | 21.8 nM
CC(=O)N[C@H]1CSSC[C@@H](C(N)=O)NC(=O)[C@H](Cc2c[nH]c3ccccc23)NC(=O)[C@H](CCCNC(=N)N)NC(=O)[C@@H](Cc2ccccc2)NC(=O)[C@H](Cc2c[nH]cn2)NC(=O)[C@H](CC(C)C)NC1=O [Compound No. 15, Ac-cyclo[Cys-Leu-His-D-Phe-Arg-Trp-Cys]-NH2] | 0.67 nM
CC(=O)N[C@@H](Cc1ccc(O)cc1)C(=O)N[C@@H](CCCNC(=N)N)C(=O)N[C@H]1CSSC[C@@H](C(N)=O)NC(=O)[C@H](Cc2c[nH]c3ccccc23)NC(=O)[C@H](CCCNC(=N)N)NC(=O)[C@@H](Cc2ccccc2)NC(=O)[C@H](Cc2cnccn2)NC(=O)[C@H](CCC(=O)O)NC1=O [Compound No. 105, Ac-Tyr-Arg-cyclo[Cys-Glu-(2-pyrazine-Ala)-D-Phe-Arg-Trp-Cys]-NH2] | 20.8 nM
CC(=O)N[C@@H](CCCNC(N)=O)C(=O)N[C@H]1CSSC[C@@H](C(N)=O)NC(=O)[C@H](Cc2c[nH]c3ccccc23)NC(=O)[C@H](CCCNC(=N)N)NC(=O)[C@@H](Cc2ccccc2)NC(=O)[C@H](Cc2cn(C)cn2)NC(=O)[C@H](CCC(=O)O)NC1=O [Compound No. 56, Ac-Cit-cyclo[Cys-Glu-(1-Me-His)-D-Phe-Arg-Trp-Cys]-NH2] | 23.4 nM
N=C(N)NCCC[C@@H]1NC(=O)[C@@H](Cc2ccc(Cl)cc2)NC(=O)[C@H](Cc2c[nH]cn2)NC(=O)[C@@H](NC(=O)[C@@H](N)CCCNC(=N)N)CSSCC[C@@H](C(N)=O)NC(=O)[C@H](Cc2c[nH]c3ccccc23)NC1=O [Compound No. 188, Arg-cyclo[Cys-His-(4-Cl-D-Phe)-Arg-Trp-hCys]-NH2] | 0.92 nM
CC(=O)N[C@@H](Cc1ccc(O)cc1)C(=O)N[C@@H](CCCNC(=N)N)C(=O)N[C@H]1CSSC[C@@H](C(=O)N[C@@H](CO)C(=O)N2CCC[C@H]2CO)NC(=O)[C@H](Cc2c[nH]c3ccccc23)NC(=O)[C@H](CCCNC(=N)N)NC(=O)[C@@H](Cc2ccccc2)NC(=O)[C@H](Cc2c[nH]cn2)NC(=O)[C@H](CCC(=O)O)NC1=O [Compound No. 120, Ac-Tyr-Arg-cyclo[Cys-Glu-His-D-Phe-Arg-Trp-Cys]-Ser-Pro alcohol] | 0.4 nM
CC(=O)N[C@H]1CSSC[C@@H](C(=O)N[C@@H](CO)C(=O)N2CCC[C@H]2C(N)=O)NC(=O)[C@H](Cc2c[nH]c3ccccc23)NC(=O)[C@H](CCCNC(=N)N)NC(=O)[C@@H](Cc2ccccc2)NC(=O)[C@H](Cc2c[nH]cn2)NC(=O)[C@H](CCC(=O)O)NC1=O [Compound No. 36, Ac-cyclo[Cys-Glu-His-D-Phe-Arg-Trp-Cys]-Ser-Pro-NH2] | 1.66 nM
N=C(N)NCCC[C@H](NC(=O)[C@@H](N)Cc1ccc(O)cc1)C(=O)N[C@H]1CSSC[C@@H](C(=O)N[C@@H](CCC(=O)O)C(N)=O)NC(=O)[C@H](Cc2c[nH]c3ccccc23)NC(=O)[C@H](CCCNC(=N)N)NC(=O)[C@@H](Cc2ccccc2)NC(=O)[C@H](Cc2c[nH]cn2)NC(=O)[C@H](CCC(=O)O)NC1=O [Compound No. 71, Tyr-Arg-cyclo[Cys-Glu-His-D-Phe-Arg-Trp-Cys]-Glu-NH2] | 2.11 nM
CC(=O)N[C@@H](Cc1ccc(O)cc1)C(=O)N[C@@H](CCCNC(=N)N)C(=O)N[C@H]1CSSC[C@@H](C(=O)N[C@@H](CCCNC(=N)N)C(=O)N[C@@H](Cc2ccccc2)C(N)=O)NC(=O)[C@H](Cc2c[nH]c3ccccc23)NC(=O)[C@H](CCCNC(=N)N)NC(=O)[C@@H](Cc2ccccc2)NC(=O)[C@H](Cc2c[nH]cn2)NC(=O)[C@H](CCC(=O)O)NC1=O [Compound No. 123, Ac-Tyr-Arg-cyclo[Cys-Glu-His-D-Phe-Arg-Trp-Cys]-Arg-Phe-NH2] | 1.13 nM
